Our source for the tolerability in mice values is US7166612B2, “Methods for reducing platelet activation platelet aggregaton or thrombosis” (Beth Israel Deaconess Medical Center, priority 2001, dated 2007).

The data set concerns laser-induced thrombi in cremaster arterioles. To be noted: in words. From the text:
A preferred animal model involves intravital microscopy of laser-induced thrombi. The method is described by Rosen et al., 2001, Am J Pathol 158, 1613–1622, which is incorporated herein by reference. Minor variations of that method were employed as described below.
Experimental mice are pre-anesthetized and surgically prepared. A tracheal tube is placed to facilitate breathing and the jugular vein is canulated to allow for maintenance of anesthetic and introduction of compound. The cremaster muscle is then exteriorized. The muscle is affixed over a glass slide, allowing illumination from below. […]
Thrombosis is initiated by damaging the vessel wall (of a 30 μm vessel) with a laser pulse from a MicroPoint LASER attached to the microscope. […] The recruitment of platelets to the thrombus is then monitored by the accumulation of (activated) Alexa 488-labeled platelets at the ablation site using fluorescence microscopy, and the process is recorded digitally. The method thus permits in vivo analysis of platelet activation as measured by platelet aggregation and thrombosis.
The degree of embolization in an untreated mouse can be quantified using software for image analysis, e.g., BioQuant True Color Windows (Biometrics, Nashville, Tenn.), as described in Rosen et al., 2001, supra. […]

Regarding “9-methylene-4-(alkyl)-2,3,4,9-tetrahydro-1H-cyclopenta(b)quinoline”, the tolerability in mice entry was “tolerated”.
